The subject of this data set is Mus musculus. Put plainly: Ratio of drug uptake in liver to harderian glands of C57BL/6 mouse at 10 mg/kg, po after 6 hrs. Conditions: in vivo.

Where only a bound is given, the exact number is not on record here.

Turning to `O=C(O)Cn1nnc(-c2cncc(-c3cn(Cc4cc(Br)c(Br)c(Br)c4)nn3)c2)n1`, the Ratio was over 94.

As to `O=C(O)Cn1nnc(-c2cnc(-c3cn(Cc4cc(Cl)c(Cl)c(Cl)c4)nn3)s2)n1`, the Ratio is listed as over 66.

These data come from ChEMBL document CHEMBL1914316, “Conversion of systemically-distributed triazole-based stearoyl-CoA desaturase (SCD) uHTS hits into liver-targeted SCD inhibitors” (Bioorg Med Chem Lett, 2011).
